The text below walks through data of patent KR20220012314A (dated 2022).

In assay [1] the target is T1, 재조합 인간 BCMA-his 단백질 (Cat#BCA-H522Y, 아크로 바이오시스템즈) (human, UniProt Q02223 1-54, biotin-labelled in the capture ELISA and the benchmark-blocking ELISA).
T1 construct: Bought protein, MW 7.8 kDa as printed; not shown: his tag
T1 sequence: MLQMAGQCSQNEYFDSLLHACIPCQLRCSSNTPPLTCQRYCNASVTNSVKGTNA
As to the kind of experiment: SPR (Biacore), human BCMA.

In assay [2] the target is T1, 재조합 인간 BCMA-his 단백질 (Cat#BCA-H522Y, 아크로 …). As to the kind of experiment: capture ELISA with biotin-labelled human BCMA-his.
For assay [3] the target is unchanged. Nature of the assay: capture ELISA with biotin-labelled human BCMA-his. This is another data set of the same source. (In general: ELISA stands for enzyme-linked immunosorbent assay.)
Assay [4] shares this target. Nature of the assay: capture ELISA: antibody captured on plate, biotin-labelled human BCMA-his in solution.
Assay [5] has the same target. Nature of the assay: competition ELISA: BCMA-his coated, antibody titrated, then biotin-labelled human BAFF-Fc; competitor BAFF-Fc.
For assay [6] the target is unchanged. Described as above. This is another data set of the same source.
For assay [7] the target is unchanged. As to the kind of experiment: competition ELISA: BM coated, antibody titrated and premixed with biotin-labelled human BCMA-his; competitor BM.
Assay [8] shares this target. Described as above. This is another data set of the same source.

Usually Kd stands for the constant that tells how readily two partners part at equilibrium. Broadly, the EC50 is the concentration at which the effect is half-maximal. Low values mean an effect from little substance, high ones a need for much substance. By IC50 is commonly meant the concentration that gives 50% inhibition. High values mean weaker potency in that assay, low ones greater potency in that assay.

Numbering of substitutions follows the chain as printed. Where “and” joins values, the source holds several entries; their conditions need not be identical. Identical values can stand only once.

B1: 키메라 B1G3 (antibody, V domains shown)
VH: QIQLVQSGPELKKPGETVKISCKASGYTFTNHGMNWVKQAPGKGLKWMGWINTYTGEPTYADDFKGRFAFSLETSATTAYLQINNLRIEDTATYFCARYSYYGYYHAMDYWGQGTSVTVSS
VL: QIVLSQSPAILSASPGEKVTMTCRASSSVHYMHWYQQKPGSPPKPWIYATSNLASGVPARFSGSGSGTSYSLTISRVEAEDAATYYCQQWSSNPTFGGGTKLEIKR
In turn, B1 showed a dissociation constant Kd in assay [1] of 2.22 nM. Besides, the EC50 is 1.7 ng/mL and 2.14 ng/mL and 2.39 ng/mL in assay [2]; 1.47 nM in assay [3]; 1.47 nM in assay [4]. The IC50 in assay [5] amounted to 9.04 nM; in assay [6] it was 9.04 nM; in assay [7] it was 9.89 nM; in assay [8] it was 9.89 nM.

B2: 키메라 B1C1 (antibody, V domains shown)
VH: B1 VH with T28I, H32F, G44D, T74N, T77S, Y80S, N84D, R87K, I88N, T115A
VL: B1 VL with A9T, K18E, H30F, P42S, N52T, T73S, Y86F
Regarding B2, the Kd in assay [1] came to 1.25 nM. The EC50 in assay [2] is 0.832 ng/mL and 1.12 ng/mL and 1.05 ng/mL; in assay [3] it was 1.25 nM; in assay [4], 1.25 nM. The concentration for half-maximal inhibition (IC50) was found to be 2.29 nM in assay [5], 2.29 nM in assay [6], 3.01 nM in assay [7] and 3.01 nM in assay [8].
